One experiment has as its system SIVA2. Put plainly: SIVA2 protein level in PBMCs, western blotting with anti-SIVA antibody. Conditions: resting PBMCs, ligands for 8 h. The experiment is classed as cell-based, human. The method, then:
(§1) (A) Expression of SIVA1 and SIVA2 in various cell lines. For each cell line, cellular protein (30 μg) was resolved by 13.5% SDS-PAGE and probed with anti-SIVA antibody. The two lanes at the right show SIVA1 and SIVA2 overexpressed in HEK-293T cells (for each protein, 2 μg cDNA/well in 6-well plates). (B) Several SIVA isoforms are expressed in PBMCs. […] (C) Ligand activation increases the amount of SIVA2 in resting PBMCs. Cells (2×10^6) were treated with the indicated ligands for 8 h and the cell lysates were analyzed by western blotting. […] The cells were stimulated with PHA (1 μg/ml) for 48 h, washed twice with phosphate-buffered saline, and incubated for an additional period of 18 h without PHA. […] Semi-quantitative RT-PCR for SIVA message was performed as described in Methods. […] Total-cell lysates were analyzed by western blotting using anti-SIVA antibody. TNF-induced SIVA2 stabilization was assessed in EcR-293-CD27 cells. […] Total-cell lysates were analyzed by western blotting using LDH as the loading control (bottom panel). […] HEK-293T cells were transfected with FLAG-SIVA2 and analyzed 24 h after transfection. […] Cells lysates were analyzed by western blotting using anti-SIVA antibody. Middle: HepG2 cells were exposed to UVC (20 J/m^2) and levels of SIVA proteins were determined after 18 h of treatment. […]
(Immunoblotting shows a protein as a band on a membrane.)

The test system of the next experiment is SIVA1. Put plainly: SIVA1 protein level in PBMCs, western blotting with anti-SIVA antibody. Conditions: resting PBMCs, ligands for 8 h. Format: cell-based, human. The method, then: as §1

In patent US20110293593A1, “SIVA 2 STABILIZATION” (YEDA RESEARCH AND DEVELOPMENT CO., LTD., priority 2008, published 2011) one finds SIVA2 expression and SIVA1 expression data, which are given here for one substance.

Regarding “TNF: Tumor necrosis factor, applied to cells at 100 ng/ml”, in the experiment with SIVA2, the SIVA2 expression entry is given as “extensive enhancement”. In the experiment on SIVA1, the SIVA1 expression entry is reported as “did not affect”.
